# Test results from ChEMBL document CHEMBL1201862, “PubChem BioAssay data set” (2004).
# Protein sequences, listed by entry. Tags and fused reporters are not part of them.
# UniProt P38398, whole entry, looked up: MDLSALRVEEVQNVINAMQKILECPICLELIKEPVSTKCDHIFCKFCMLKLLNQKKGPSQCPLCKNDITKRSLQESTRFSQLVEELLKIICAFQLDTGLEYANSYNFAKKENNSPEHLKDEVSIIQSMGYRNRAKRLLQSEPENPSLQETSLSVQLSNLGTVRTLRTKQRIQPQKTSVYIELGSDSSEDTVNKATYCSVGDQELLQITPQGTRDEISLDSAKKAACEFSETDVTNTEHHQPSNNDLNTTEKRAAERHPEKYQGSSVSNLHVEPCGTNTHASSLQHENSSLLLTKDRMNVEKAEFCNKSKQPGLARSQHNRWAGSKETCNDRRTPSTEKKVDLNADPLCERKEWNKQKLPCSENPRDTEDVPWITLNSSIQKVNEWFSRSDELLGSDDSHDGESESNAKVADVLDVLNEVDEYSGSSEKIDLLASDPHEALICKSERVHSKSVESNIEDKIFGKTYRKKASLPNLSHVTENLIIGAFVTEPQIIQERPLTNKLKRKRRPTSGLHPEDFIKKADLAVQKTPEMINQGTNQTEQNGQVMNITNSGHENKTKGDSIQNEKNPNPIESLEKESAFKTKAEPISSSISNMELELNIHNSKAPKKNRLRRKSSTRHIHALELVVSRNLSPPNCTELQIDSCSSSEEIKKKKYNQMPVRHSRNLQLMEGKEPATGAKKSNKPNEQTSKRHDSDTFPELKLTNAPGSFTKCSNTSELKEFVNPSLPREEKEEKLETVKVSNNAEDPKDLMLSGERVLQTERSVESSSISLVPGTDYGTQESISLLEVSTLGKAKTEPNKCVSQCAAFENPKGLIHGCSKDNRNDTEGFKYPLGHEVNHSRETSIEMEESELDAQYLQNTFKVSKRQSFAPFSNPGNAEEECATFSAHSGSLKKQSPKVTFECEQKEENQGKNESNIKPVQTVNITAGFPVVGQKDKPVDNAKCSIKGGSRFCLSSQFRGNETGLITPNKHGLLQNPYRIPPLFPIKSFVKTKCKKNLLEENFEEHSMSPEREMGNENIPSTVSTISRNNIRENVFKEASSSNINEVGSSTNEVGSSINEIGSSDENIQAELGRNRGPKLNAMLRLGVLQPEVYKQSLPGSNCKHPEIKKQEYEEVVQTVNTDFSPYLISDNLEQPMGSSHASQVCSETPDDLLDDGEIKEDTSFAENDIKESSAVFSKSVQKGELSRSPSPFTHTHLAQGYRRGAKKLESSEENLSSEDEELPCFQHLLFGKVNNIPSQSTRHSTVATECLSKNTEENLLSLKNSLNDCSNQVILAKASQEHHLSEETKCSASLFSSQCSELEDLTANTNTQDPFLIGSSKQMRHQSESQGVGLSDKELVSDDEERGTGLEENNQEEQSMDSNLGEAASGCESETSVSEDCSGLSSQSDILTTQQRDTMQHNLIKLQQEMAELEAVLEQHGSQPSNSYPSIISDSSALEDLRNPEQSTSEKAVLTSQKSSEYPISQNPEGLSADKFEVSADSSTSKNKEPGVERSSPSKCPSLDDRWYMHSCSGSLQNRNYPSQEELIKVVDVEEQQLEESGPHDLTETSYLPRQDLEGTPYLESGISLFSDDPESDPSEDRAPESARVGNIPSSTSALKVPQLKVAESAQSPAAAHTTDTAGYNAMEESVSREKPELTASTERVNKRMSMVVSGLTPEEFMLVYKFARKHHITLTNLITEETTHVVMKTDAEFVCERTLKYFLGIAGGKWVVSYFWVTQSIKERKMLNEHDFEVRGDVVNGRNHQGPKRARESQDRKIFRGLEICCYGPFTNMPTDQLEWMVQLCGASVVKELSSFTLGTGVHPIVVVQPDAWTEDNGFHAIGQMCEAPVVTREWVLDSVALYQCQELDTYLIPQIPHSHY
# Only a part is listed here, and it is no random draw. These assays gave more results; the selection is not random. Calls of active or inactive are those of the source. The calls are words filed in the database; no cut-off is given here.
# Biological target: Breast cancer type 1 susceptibility protein (Homo sapiens) (UniProt P38398)
# Assay: qHTS Assay to Identify Small Molecule Activators of BRCA1 Expression.
# Assay type: functional
row,Structure (SMILES),Potency
1,N=C(N)c1ccc(OCCCCCOc2ccc(C(=N)N)cc2)cc1,inactive
